# Laboratory results reported in PMC8141644.
# pKd: −log10 of the molar value.
# Biological target: EGFR-ECD (UniProt P00533)
# Experiment: BLI
# Conditions: bispecific antibody
substance,measurement,value
bispecific hdFEB4-1-4×hNKE14-8 (from UniProt P01857),pKd,7.68
